From patent US20260027125A1, “AN ANTIBACTERIAL PARENTERAL FORMULATION AND METHODS THEREOF” (BUGWORKS RESEARCH INDIA PVT. LTD., priority 2022, published 2026)
Structures can show the parent of a compound that is named as a salt.

Assay: Solubility enhancement trials
Assay type: physicochemical
Method: All observations were recorded once the solution temperature reached to 25° C.-30° C.

Cn1c(=O)ccc2ccc(F)c(CCNC[C@H]3CN(c4cnc5c(n4)NC(=O)CO5)C(=O)O3)c21 [compound of Formula (I) formate salt, (S)-6-(5-(((2-(7-fluoro-1-methyl-2-oxo-1,2-dihydroquinolin-8-yl)ethyl)amino)methyl)-2-oxooxazolidin-3-yl)-2H-pyrazino[2,3-b][1,4]oxazin-3(4H)-one formate]
Remark (appearance) (Sr. No. 1: 5% Ascorbic acid solution): Clear solution | Remark (appearance) (Sr. No. 2: 7.5% Citric acid solution): PPt on standing | Remark (appearance) (Sr. No. 3: […] Acetic acid Solution): Clear solution | Remark (appearance) (Sr. No. 4: […] Succinic acid Solution): Clear solution | Remark (appearance) (Sr. No. 5: 7.5% Citric acid + 20% Sulfobutyl ether β-CD): PPt on standing immediately | Remark (appearance) (Sr. No. 6: 7.5% Citric acid + 20% HPβ-CD, standing overnight): PPt on standing for | Remark (appearance) (Sr. No. 7: 7.5% Citric acid + 20% HPβ-CD + 4% Ethanol, standing overnight): PPt on standing for | Remark (appearance) (Sr. No. 8: 5% Ascorbic acid + 5% Citric acid + 0.5% PVP K-12 + 20% HPβ-CD): PPt on standing immediately | Remark (appearance) (Sr. No. 9: 10% Ascorbic acid + 1% PVP K-12 + 20% HPβ-CD, 25 mg/mL sample): 25 mg/mL sample- Clear | Remark (appearance) (Sr. No. 9: 10% Ascorbic acid + 1% PVP K-12 + 20% HPβ-CD, 30 mg/mL sample): hazy Solution | Remark (appearance) (Sr. No. 10: 5% Ascorbic acid + 2% PVP K-12 + 20% HPβ-CD): Clear solution | Remark (appearance) (Sr. No. 12: 7.5% Ascorbic acid + 1% PVP K-12 + 20% HPβ-CD): Clear solution | Remark (appearance) (Sr. No. 13: 5% Ascorbic acid + […] Lactic acid + 1% PVP K-12 + 20% HPβ-CD): — Clear solution | Remark (appearance) (Sr. No. 15: 7.5% Ascorbic acid + 1% PVP K-12 + 30% HPβ-CD): Clear solution | Remark (appearance) (Sr. No. 17: 10% Ascorbic acid + 1% PVP K-12 + 30% HPβ-CD): Clear solution | Remark (appearance) (Sr. No. 18: 7% Ascorbic acid + […] Acetic acid + 1% PVP K-12 + 30% HPβ-CD): Clear Solution with few | Remark (appearance) (Sr. No. 19: 7% Ascorbic acid + 0.9% Glycine + 30% HPβ-CD): Clear solution | Remark (appearance) (Sr. No. 20: 7% Ascorbic acid + […] Acetic acid + 0.9% Glycine + 30% HPβ-CD): Clear Solution with few | Remark (appearance) (Sr. No. 21: 7% Ascorbic acid + […] lactic acid + 1% PVP K-12 + 30% HPβ-CD): Clear solution | Remark (appearance) (Sr. No. 22: 6% Ascorbic acid + […] Acetic acid + […] lactic acid + 1% PVP K-12 + 30% HPβ-CD): Clear Pale Yellow color | Remark (appearance) (Sr. No. 23: Acetate Buffer (200 mM, pH 3.0) + 6% Ascorbic acid + […] lactic acid + 1% PVP K-12 + 30% HPβ-CD): Slightly Hazy Solution | Remark (appearance) (Sr. No. 24: 5% Ascorbic acid + […] Acetic acid + […] lactic acid + 1% PVP K-12 + 30% HPβ-CD, pH adjusted by L-Arginine Solution): Clear Pale Yellow Solution
